Molecular target: kappa opioid receptor (OPRK1) (Homo sapiens (Human), UniProt P41145)
Assay: OPRK1 antagonist assay (b-arrestin-2-TEV / b-lactamase reporter cell line, EC80 U-50488 challenge)
Assay type: cell-based
Details: read-out: IC50 nM (% inhib if other than 50%); antagonist mode vs EC80 U-50488; NA = not active at concentrations up to 10 μM

By UniProt entry, the sequences of proteins in these tests, tags left out. Where a name states a change or a piece, a line headed by the entry shows the natural chain unless it says otherwise.
UniProt P41145: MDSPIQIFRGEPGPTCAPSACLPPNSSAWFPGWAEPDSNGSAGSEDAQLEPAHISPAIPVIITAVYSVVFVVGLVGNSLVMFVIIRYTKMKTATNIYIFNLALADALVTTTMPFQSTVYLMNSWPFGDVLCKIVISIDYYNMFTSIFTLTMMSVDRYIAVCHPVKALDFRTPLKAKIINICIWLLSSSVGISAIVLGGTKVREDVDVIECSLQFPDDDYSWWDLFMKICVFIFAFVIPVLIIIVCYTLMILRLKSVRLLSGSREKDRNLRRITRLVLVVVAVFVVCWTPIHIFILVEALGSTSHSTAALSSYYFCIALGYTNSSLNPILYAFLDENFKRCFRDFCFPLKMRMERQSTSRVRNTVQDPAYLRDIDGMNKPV

Cc1ccc2nc(N3CCC(NC4CCCCC4O)CC3)c(-c3nc(C)no3)cc2c1 (stereo not shown) [compound 248]
IC50: 11 nM

Source: patent US20250346584A1, “NOVEL KAPPA OPIOID LIGANDS” (The Scripps Research Institute, priority 2012, published 2025)
